AlphaSeq binding of Ab-91 heavy chain variants to a spike HR2 peptide

Source: Engelhart et al. 2022 (doi:10.1038/s41597-022-01779-4), MIT Lincoln Laboratory and A-Alpha Bio; data file from the FLAb repository.

Binding partner: SARS-CoV-2 spike HR2 peptide, sequence PDVDLGDISGINAS.

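Phage display of a naive human antibody library on the peptide gave the parent. Variants in AAYL51 differ from the parent at up to three CDR positions; double and triple changes were sampled at random. AlphaSeq pools MATa yeast showing the antibodies with MATalpha yeast showing the peptide. Pairs that bind mate more often; barcode pairs of the diploids are counted by sequencing. Each replicate has its own calibration line, from reference interactions of the BCL2 family. Each pool was mated in three replicate cultures.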

Parent scFv Ab-91: VL joined to VH by the linker GGGGSGGGGSGGGGS. Changes lie in the heavy chain CDRs alone.
VL: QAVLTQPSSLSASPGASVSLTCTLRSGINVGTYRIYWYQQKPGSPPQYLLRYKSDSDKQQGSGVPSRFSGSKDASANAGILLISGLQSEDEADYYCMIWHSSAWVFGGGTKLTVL
VH: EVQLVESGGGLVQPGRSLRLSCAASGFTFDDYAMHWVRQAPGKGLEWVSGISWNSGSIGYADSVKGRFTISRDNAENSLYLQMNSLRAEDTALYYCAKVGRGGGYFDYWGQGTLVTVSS

Each variant's VH is given in full.
Every variant below is changed at S57 of the VH (sequential numbering).
The Kd shown is the geometric mean over detected replicates; a lower Kd is a better binder.
A pair that was not seen in any replicate is written "nd"; this usually means weak binding, but a binder can also be missed.
As a blank, each scFv also met three strains without target: over library AAYL51, 21% of these pairings were detected, typically at 34 µM and seldom below 1.8 µM. For each scFv, signals with the empty controls are counted beside the result.

The variant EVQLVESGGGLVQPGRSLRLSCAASGFTFDDYAMHWVRQAPGKGLEWVSGISWNSGIIGYADSVYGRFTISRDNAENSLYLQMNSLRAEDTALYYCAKVGRGGGYFDYWGQGTLVTVSS gave nd (0 of 3 replicates; controls 1 of 9). The variant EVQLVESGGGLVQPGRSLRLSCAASGFTFDDYAMHWVRQAPGKGLEWVSGISWNSGHIGYADSVKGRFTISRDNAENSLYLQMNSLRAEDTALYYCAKVVRNGGYFDYWGQGTLVTVSS gave 450 nM (3 of 3 replicates; controls 3 of 9). The variant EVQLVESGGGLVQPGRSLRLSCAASGFTFDDYAMHWVRQAPGKGLEWVSGISWNSGDIGYADSVKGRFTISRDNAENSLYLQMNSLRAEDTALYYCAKVGRGWGYFDYWGQGTLVTVSS gave 88 µM (3 of 3 replicates; controls 5 of 9). With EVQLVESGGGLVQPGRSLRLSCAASGFTFDDYAQHWVRQAPGKGLEWVSGISWNSGIIGYADSVKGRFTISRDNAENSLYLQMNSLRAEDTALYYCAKVGRGGGYFDYWGQGTLVTVSS the result was nd (0 of 3 replicates; controls 3 of 9). The variant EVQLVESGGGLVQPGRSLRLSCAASGCTFDDYWMHWVRQAPGKGLEWVSGISWNSGDIGYADSVKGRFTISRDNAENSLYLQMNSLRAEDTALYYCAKVGRGGGYFDYWGQGTLVTVSS gave 12 µM (3 of 3 replicates; controls 3 of 9). For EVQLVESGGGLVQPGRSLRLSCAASGFTFDDYAMHWVRQAPGKGLEWVSGISWNSGRIGEADSVKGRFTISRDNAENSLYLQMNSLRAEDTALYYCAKVGRGGGYFDYWGQGTLVTVSS, the assay gave 140 µM (1 of 3 replicates; controls 4 of 9). The variant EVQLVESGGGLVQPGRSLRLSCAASGFTFDDYMMHWVRQAPGKGLEWVSGISWNSGTIGYADSVKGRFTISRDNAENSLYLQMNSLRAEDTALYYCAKVGRGGGYFDYWGQGTLVTVSS showed 63 µM (1 of 3 replicates; controls 0 of 9).

With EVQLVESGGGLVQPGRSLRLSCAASGFTFDDYAMHWVRQAPGKGLEWVSGISWNSGPIGYADSVKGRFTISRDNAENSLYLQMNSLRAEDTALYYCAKVGRAQGYFDYWGQGTLVTVSS the result was nd (0 of 3 replicates; controls 2 of 9). With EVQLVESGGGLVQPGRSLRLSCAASGFTFDDYAMHWVRQAPGKGLEWVSGIRWNSGMIGYADSVKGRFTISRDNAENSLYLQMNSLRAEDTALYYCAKVGRGGGYFKYWGQGTLVTVSS the result was nd (0 of 3 replicates; controls 1 of 9). The variant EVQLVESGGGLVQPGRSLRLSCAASGFTTDDYAMHWVRQAPGKGLEWVSGISWNSGRIGYADEVKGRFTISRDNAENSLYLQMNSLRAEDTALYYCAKVGRGGGYFDYWGQGTLVTVSS gave nd (0 of 3 replicates; controls 0 of 9). The variant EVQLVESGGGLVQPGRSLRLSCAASGFTDDDYAMHWVRQAPGKGLEWVSGISWNSGHIGYADSVKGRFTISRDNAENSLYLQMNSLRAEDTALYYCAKVGRGGGYFDYWGQGTLVTVSS showed nd (0 of 3 replicates; controls 1 of 9). With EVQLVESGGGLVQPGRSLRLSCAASGFTFDDYAMHWVRQAPGKGLEWVSGISWNSGFDGYADSVKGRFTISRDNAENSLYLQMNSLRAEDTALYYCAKLGRGGGYFDYWGQGTLVTVSS the result was 40 µM (3 of 3 replicates; controls 2 of 9). The variant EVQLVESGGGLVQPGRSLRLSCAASGFTFDDSAMHWVRQAPGKGLEWVSGISWNSGQIGYADSVKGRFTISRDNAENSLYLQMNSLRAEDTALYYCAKVGRGGGYFDYWGQGTLVTVSS gave nd (0 of 3 replicates; controls 0 of 9). For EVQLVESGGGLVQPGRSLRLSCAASGFTFDDYAMHWVRQAPGKGLEWVSGISWNSGYIGYADSVKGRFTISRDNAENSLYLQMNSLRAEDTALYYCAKVGRGWGYFDYWGQGTLVTVSS, the assay gave 200 µM (3 of 3 replicates; controls 5 of 9).

The variant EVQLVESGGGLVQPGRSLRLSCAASGFTFDDYAMHWVRQAPGKGLEWVSGISWNSGWIGYADSVKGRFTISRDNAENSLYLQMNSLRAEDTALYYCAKHGRGGGMFDYWGQGTLVTVSS showed nd (0 of 3 replicates; controls 3 of 9). The variant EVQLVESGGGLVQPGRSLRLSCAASGFTFDDYAMHWVRQAPGKGLEWVSGISWNSRIIGYADSVKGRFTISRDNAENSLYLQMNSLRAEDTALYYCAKFGRGGGYFDYWGQGTLVTVSS showed nd (0 of 3 replicates; controls 1 of 9). For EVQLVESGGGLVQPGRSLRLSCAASGFTFDDYAMHWVRQAPGKGLEWVSGISWNSGEIGYGDSVKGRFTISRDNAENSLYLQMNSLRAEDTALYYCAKVGRGGGVFDYWGQGTLVTVSS, the assay gave 7.2 nM (3 of 3 replicates; controls 1 of 9). The variant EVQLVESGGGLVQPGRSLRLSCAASGFTFDDYAMHWVRQAPGKGLEWVSGSSWNAGVIGYADSVKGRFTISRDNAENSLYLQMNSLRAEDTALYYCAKVGRGGGYFDYWGQGTLVTVSS showed nd (0 of 3 replicates; controls 0 of 9). With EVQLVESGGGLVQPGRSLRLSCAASGFTFDDYAMHWVRQAPGKGLEWVSGISWNSVGIGYADSFKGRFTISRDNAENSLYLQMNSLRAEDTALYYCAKVGRGGGYFDYWGQGTLVTVSS the result was nd (0 of 3 replicates; controls 5 of 9). The variant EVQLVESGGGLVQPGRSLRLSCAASGFTFDDYAMHWVRQAPGKGLEWVSGISWNSGKIGYADSVKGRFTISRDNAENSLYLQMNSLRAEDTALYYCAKVGRGGGYFDYWGQGTLVTVSS gave 6.7 µM (3 of 3 replicates; controls 0 of 9). The variant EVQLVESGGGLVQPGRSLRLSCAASGFTFDDYAMHWVRQAPGKGLEWVSGISWNSGQIGYADSVKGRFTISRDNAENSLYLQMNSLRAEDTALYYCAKVGRGGGYFDYWGQGTLVTVSS gave 330 nM (3 of 3 replicates; controls 2 of 9).

The variant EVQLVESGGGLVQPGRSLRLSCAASGFTFDDYATHWVRQAPGKGLEWVSGISWNSGHIGYADSVKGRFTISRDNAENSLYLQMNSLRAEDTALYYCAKVGRGGGYFDYWGQGTLVTVSS showed 18 µM (2 of 3 replicates; controls 1 of 9). With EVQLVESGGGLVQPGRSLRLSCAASGFTFDDYAVHWVRQAPGKGLEWVSGISWNSGDSGYADSVKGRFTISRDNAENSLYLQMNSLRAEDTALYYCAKVGRGGGYFDYWGQGTLVTVSS the result was 65 µM (2 of 3 replicates; controls 6 of 9). The variant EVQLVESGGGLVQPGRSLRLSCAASGFTFDDYAMHWVRQAPGKGLEWVSGISWNSGLIGYACGVKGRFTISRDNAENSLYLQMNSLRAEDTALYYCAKVGRGGGYFDYWGQGTLVTVSS showed 1.1 µM (1 of 3 replicates; controls 0 of 9).

3 of these entries, quoted again:

Variant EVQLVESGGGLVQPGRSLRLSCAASGFTTDDYAMHWVRQAPGKGLEWVSGISWNSGRIGYADEVKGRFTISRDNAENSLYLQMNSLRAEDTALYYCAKVGRGGGYFDYWGQGTLVTVSS showed nd (0 of 3 replicates; controls 0 of 9).
Variant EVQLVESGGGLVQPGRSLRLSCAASGFTFDDYAMHWVRQAPGKGLEWVSGISWNSGIIGYADSVYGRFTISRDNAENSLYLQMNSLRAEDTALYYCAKVGRGGGYFDYWGQGTLVTVSS showed nd (0 of 3 replicates; controls 1 of 9).
Variant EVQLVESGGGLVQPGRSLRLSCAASGFTFDDYAMHWVRQAPGKGLEWVSGIRWNSGMIGYADSVKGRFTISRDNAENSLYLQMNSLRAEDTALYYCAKVGRGGGYFKYWGQGTLVTVSS showed nd (0 of 3 replicates; controls 1 of 9).

For reference, the parent read 72 nM as the reference entry and 7.5 nM as a member of this library.